Assay results reported in paper PMC7723054.
Some of the results follow.

T1: LIN28A (human?, UniProt Q9H9Z2 1-209)
T1 sequence: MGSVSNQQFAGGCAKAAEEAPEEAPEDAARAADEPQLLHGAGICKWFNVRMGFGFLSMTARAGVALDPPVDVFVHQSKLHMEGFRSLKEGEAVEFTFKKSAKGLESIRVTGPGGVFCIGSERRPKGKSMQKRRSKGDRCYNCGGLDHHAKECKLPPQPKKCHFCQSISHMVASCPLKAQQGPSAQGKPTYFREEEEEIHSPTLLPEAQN

T2: CIRBP (Homo sapiens, UniProt Q14011 1-172)
T2 sequence: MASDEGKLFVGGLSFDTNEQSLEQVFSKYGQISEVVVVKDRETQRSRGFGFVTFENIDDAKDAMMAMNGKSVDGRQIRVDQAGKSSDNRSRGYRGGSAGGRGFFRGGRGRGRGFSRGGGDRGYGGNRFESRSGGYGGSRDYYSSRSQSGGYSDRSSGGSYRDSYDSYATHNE

T3: DHX36 (Homo sapiens, UniProt Q9H2U1 1-1008)
T3 sequence: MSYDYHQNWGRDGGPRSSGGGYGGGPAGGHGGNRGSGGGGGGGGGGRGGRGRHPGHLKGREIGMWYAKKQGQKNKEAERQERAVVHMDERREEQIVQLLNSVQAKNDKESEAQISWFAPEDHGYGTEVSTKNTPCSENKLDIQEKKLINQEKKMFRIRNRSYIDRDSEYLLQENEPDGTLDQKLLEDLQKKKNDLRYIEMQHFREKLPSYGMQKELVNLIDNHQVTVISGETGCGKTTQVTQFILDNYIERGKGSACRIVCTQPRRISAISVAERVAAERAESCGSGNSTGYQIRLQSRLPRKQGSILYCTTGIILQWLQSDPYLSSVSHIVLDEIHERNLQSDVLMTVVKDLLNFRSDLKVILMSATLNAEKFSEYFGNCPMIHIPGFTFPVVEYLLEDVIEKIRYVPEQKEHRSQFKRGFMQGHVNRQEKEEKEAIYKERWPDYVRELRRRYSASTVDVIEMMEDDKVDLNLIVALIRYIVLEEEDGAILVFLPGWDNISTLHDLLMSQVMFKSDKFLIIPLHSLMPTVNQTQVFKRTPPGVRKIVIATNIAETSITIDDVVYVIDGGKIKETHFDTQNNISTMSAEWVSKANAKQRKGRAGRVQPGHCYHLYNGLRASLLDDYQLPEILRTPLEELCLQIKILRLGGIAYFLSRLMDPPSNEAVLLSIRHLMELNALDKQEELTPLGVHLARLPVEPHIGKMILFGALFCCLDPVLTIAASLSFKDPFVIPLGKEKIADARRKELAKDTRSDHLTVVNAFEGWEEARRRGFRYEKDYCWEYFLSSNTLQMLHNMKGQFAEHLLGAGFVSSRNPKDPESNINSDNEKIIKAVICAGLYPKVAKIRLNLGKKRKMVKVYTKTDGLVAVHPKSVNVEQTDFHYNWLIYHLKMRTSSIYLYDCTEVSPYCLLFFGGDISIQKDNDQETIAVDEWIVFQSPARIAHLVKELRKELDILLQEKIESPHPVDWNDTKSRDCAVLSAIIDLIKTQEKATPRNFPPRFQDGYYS

B1: hsa-mir-602 (structured_RNA)
RNA: GGGCAAACAACGGAGUGGGUCGACUCUUGGUGUACGAAGUUUCAGCGCCCGCUGUGUUCACUCGGGCGCUGAAGCUUCGUGCAC
B2: hsa-mir-1268b (structured_RNA)
RNA: GGGAGCUCGGAUCCCAAUGCUCAAUCUGGGUGUACGAAGUUUCAGCGGUGGGUGCCGCUGAAGCUUCGUGCAC
B3: NEAT1_ParasoR_ID15 (structured_RNA)
RNA: GGGAAUCGAGCUAGAGGCGACCAAUGAAGGUGUACGAAGUUUCAGCUAAUUAGGCGUUUGUCUUUUUAGCUGAAGCUUCGUGCAC
B4: hsa-mir-187 (structured_RNA)
RNA: GGGAAGUAUACGCCAAUGCCGAAUCUGGGGUGUACGAAGUUUCAGCCCGGGCGCUGCUCUGACCCCUCGUGCUGAAGCUUCGUGCAC
B5: hsa-mir-372 (structured_RNA)
RNA: GGGACGGUACACUGUGAACCGUUCCUACGGUGUACGAAGUUUCAGCUAUUCUGAUGUCCAAGUGGAAAGCUGAAGCUUCGUGCAC
B6: hsa-mir-6894 (structured_RNA)
RNA: GGGACCAAAUGAAACGGGACGCACACUAGGUGUACGAAGUUUCAGCGCCAGACAUGCUCUUGCGCUGAAGCUUCGUGCAC
B7: hsa-mir-4763 (structured_RNA)
RNA: GGGAAUGAAAACCCGUAGCGUAAACAGAGGUGUACGAAGUUUCAGCUGCUCUGGUGACUGAGGACCGCCAGGCAGCUGAAGCUUCGUGCAC
B8: hsa-mir-8071-1_8071-2 (structured_RNA)
RNA: GGGAAACUACUAGCUAGCAAGUAAGGGCGGUGUACGAAGUUUCAGCCCGAGUGAUCUCGGUGCUGAAGCUUCGUGCAC
B9: hsa-mir-548ai (structured_RNA)
RNA: GGGAACGGAAUUGGAGCCUAGACGCAAUGGUGUACGAAGUUUCAGCCCCAUUUAAAAUAUGGAAGCUGAAGCUUCGUGCAC
B10: hsa-mir-593 (structured_RNA)
RNA: GGGACAGACGAACGCCGACAAGUGUUCCGGUGUACGAAGUUUCAGCCACCAGCCAGGCAUUGCUCAGCCCGUUUCCCUCUGGGGGAGCAAGGAGUGGUGCUGGGUUUGUCGCUGAAGCUUCGUGCAC
B11: hsa-mir-1254-1 (structured_RNA)
RNA: GGGAAAUGGGCAUCUGGCUAUCUCACCGGGUGUACGAAGUUUCAGCCAGUGAACUAUCAUUGUGCCACUGGCUGAAGCUUCGUGCAC
B12: hsa-mir-1303 (structured_RNA)
RNA: GGGAAAGUCCGUGGAUCAAGCCAUCUUGGGUGUACGAAGUUUCAGCUACAAUUUUUUUUUUUUUAAAUUUUAGCUGAAGCUUCGUGCAC
B13: hsa-mir-548x-2 (structured_RNA)
RNA: GGGACGGGACUCUCAACAAUUACGCCCGGGUGUACGAAGUUUCAGCUUUGCCAUUAAAAGUAAUGGUAAAGCUGAAGCUUCGUGCAC
B14: hsa-mir-656 (structured_RNA)
RNA: GGGCAUCGAGCACCCCUGAGCAUCGUAAGGUGUACGAAGUUUCAGCUGUUCACUUUCUAUAUGAUGAAUAGCUGAAGCUUCGUGCAC
B15: hsa-mir-3910-2 (structured_RNA)
RNA: GGGACAUUUUGCGGGGUCCCAGUAUUAGGGUGUACGAAGUUUCAGCCUUUUAUGUGCCUUGAUAUAAAAGGCUGAAGCUUCGUGCAC
B16: hsa-mir-5000 (structured_RNA)
RNA: GGGAACCUCCUUAAGGGGCCACACCAAGGGUGUACGAAGUUUCAGCCUGAGUAACUUGUGCUUAUAACUCAGGCUGAAGCUUCGUGCAC
B17: hsa-mir-6817 (structured_RNA)
RNA: GGGAAAACCAGUGACGGUUCACCAGCAAGGUGUACGAAGUUUCAGCGUGGAACUGACCUGCCCCCUUUCUCGCUGAAGCUUCGUGCAC
B18: hsa-mir-4254 (structured_RNA)
RNA: GGGAGAUCCAGGCCCGCUCAUUUGUGUCGGUGUACGAAGUUUCAGCCUGCAGUGAGUAGGUCUGCCUGCUGAAGCUUCGUGCAC
B19: hsa-mir-4268 (structured_RNA)
RNA: GGGCUCGUAGGAGGCCGGUCACCAUAUAGGUGUACGAAGUUUCAGCUGCCCUAGCGGCUGCUGAAGCUUCGUGCAC
B20: hsa-mir-3935 (structured_RNA)
RNA: GGGACAUGAACCCUGAAAGUCUGUUUCGGGUGUACGAAGUUUCAGCUAUGAAGGUAAGCAUUUUUGUAGCUGAAGCUUCGUGCAC
B21: hsa-mir-2276 (structured_RNA)
RNA: GGGACUUAUUAGUCAAGAACCCAACCCCGGUGUACGAAGUUUCAGCCAGACGGCUUUCUCUCCGAAUGUCUGGCUGAAGCUUCGUGCAC
B22: hsa-mir-4801 (structured_RNA)
RNA: GGGAACUUAGCGGGUUCAUGUCUCGAAUGGUGUACGAAGUUUCAGCUGUAAAAUGUAAUAACAUUUCUUAUGUUUAAAACACUUUACAGCUGAAGCUUCGUGCAC
B23: hsa-mir-548ag-1 (structured_RNA)
RNA: GGGAGCAUUACUAUCGUGUCCCGGAGAAGGUGUACGAAGUUUCAGCCUGCUUUUAAAGGUAAUGGCAAGCUGAAGCUUCGUGCAC
B24: NEAT1_ParasoR_ID9 (structured_RNA)
RNA: GGGAAAAUGGGUCGCCCAUUCUGCCAACGGUGUACGAAGUUUCAGCUCUCACUUAUAAGUGAGAGCUGAAGCUUCGUGCAC
B25: hsa-mir-99b (structured_RNA)
RNA: GGGACCACAUAGAACCAAAUCCACUCGCGGUGUACGAAGUUUCAGCCUUGCGGGGCCUUCGCCGCACACAAGGCUGAAGCUUCGUGCAC
B26: hsa-mir-548y (structured_RNA)
RNA: GGGAGAUAAAGGCCCGUGGGAAACUGACGGUGUACGAAGUUUCAGCUGCCAUUACUCUCAGUGGCAGCUGAAGCUUCGUGCAC

Key:
Experiment in all cases: FOREST: bead pull-down of RNA structure library v1, barcode microarray; U1A/LIN28A: 20 mM HEPES pH 7.5, 80 mM KCl, 20 mM NaCl, 10% glycerol, 2 mM DTT, 0.1 ug/uL BSA, 4 C; BG4/CIRBP/DHX36: 10 mM Tris-HCl pH 7.5, 100 mM KCl (or LiCl),; high values mean tight binding
[1] = molecular target: T1, LIN28A
[2] = molecular target: T2, CIRBP
[3] = molecular target: T3, DHX36

| Binder | binding signal [1] [z-score] | binding signal [2] [z-score] | binding signal [3] [z-score] |
| --- | --- | --- | --- |
| B1 | -1.53 | -1.32 | -0.769 |
| B2 | -1.53 | -0.692 | -0.931 |
| B3 | -1.54 | 1.03 | -0.225 |
| B4 | -1.55 | -0.811 | -0.799 |
| B5 | -1.55 | -0.638 | -1.75 |
| B6 | -1.55 | -0.257 | -0.995 |
| B7 | -1.56 | -0.0924 | -1.05 |
| B8 | -1.56 | -0.367 | -1.99 |
| B9 | -1.58 | 0.207 | -0.0326 |
| B10 | -1.58 | -0.865 | 0.0126 |
| B11 | -1.58 | -0.123 | 0.0231 |
| B12 | -1.6 | -0.0764 | -0.103 |
| B13 | -1.6 | -0.534 | -0.576 |
| B14 | -1.6 | -0.639 | -0.908 |
| B15 | -1.6 | -0.757 | -0.785 |
| B16 | -1.61 | -0.904 | -1.14 |
| B17 | -1.62 | -1.11 | -1.23 |
| B18 | -1.62 | -0.679 | -0.841 |
| B19 | -1.64 | -0.624 | 0.063 |
| B20 | -1.68 | -0.904 | -1.09 |
| B21 | -1.68 | -0.299 | -1.51 |
| B22 | -1.68 | -2.04 | -0.379 |
| B23 | -1.69 | -1.35 | -1.22 |
| B24 | -1.69 | -0.561 | -1.26 |
| B25 | -1.73 | -0.7 | 0.578 |
| B26 | -1.73 | -0.397 | -1.07 |
